What is called IC50 is the midpoint of a concentration-inhibition curve.

The chains behind the UniProt entries cited, without tags or fusion partners. Residues count along the entry.
UniProt L0EQS9, 1-486: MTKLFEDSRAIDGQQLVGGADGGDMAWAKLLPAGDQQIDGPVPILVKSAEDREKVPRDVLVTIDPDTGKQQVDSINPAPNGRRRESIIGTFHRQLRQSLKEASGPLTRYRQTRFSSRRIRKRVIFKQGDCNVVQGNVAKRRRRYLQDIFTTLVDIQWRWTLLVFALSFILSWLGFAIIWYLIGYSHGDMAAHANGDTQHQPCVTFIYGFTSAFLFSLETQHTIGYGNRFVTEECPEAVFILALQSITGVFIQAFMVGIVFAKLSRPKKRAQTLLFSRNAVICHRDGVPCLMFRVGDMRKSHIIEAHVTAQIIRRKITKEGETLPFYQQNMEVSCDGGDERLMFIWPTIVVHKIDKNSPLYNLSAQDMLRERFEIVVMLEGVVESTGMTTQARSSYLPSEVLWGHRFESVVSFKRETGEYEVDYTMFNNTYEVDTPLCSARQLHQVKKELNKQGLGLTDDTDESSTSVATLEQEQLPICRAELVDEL

Molecules are shown by their SMILES.

The target in the assay is AeKir1 (Aedes aegypti, UniProt L0EQS9). The assay can be described thus: Tl+ flux assay in T-REx-HEK293-AeKir1 cells. The format is cell-based. The conditions noted are these: Table S3, left-hand sulfonamide SAR; 11-point CRCs on AeKir1 in Tl+ flux, triplicate on two separate days. The method, then:
Tl^+ flux assays were performed essentially as described previously, [18], [19]. Briefly, stably transfected T-Rex-HEK-293 cells expressing AeKir1 channels were cultured overnight in 384-well plates (20,000 cells/20 µL/well black-walled, clear-bottomed BD PureCoat amine-coated plates (BD, Bedford, MA) with a plating media containing DMEM, 10% dialyzed FBS and 1 µg/mL tetracycline. The next day, the cell culture medium was replaced with a dye-loading solution containing assay buffer (Hanks Balanced Salt Solution with 20 mM HEPES, pH 7.3), 0.01% (w/v) Pluronic F-127 (Life Technologies, Carlsbad, CA), and 1.2 µM of the thallium-sensitive dye Thallos-AM (TEFlabs, Austin, TX). Following 1 hr incubation at room temperature, the dye-loading solution was washed from the plates and replaced with 20 µL/well of assay buffer. The plates were transferred to a Hamamatsu Functional Drug Screening System 6000 (FDSS6000; Hamamatsu, Hamamatsu (or Bridgewater, NJ), Japan) where 20 µL/well of test compounds in assay buffer (as prepared below) were added and allowed to incubate with the cells for 20 min. After the incubation period, a baseline recording was collected at 1 Hz for 10 s (excitation 470±20 nm, emission 540±30 nm) followed by a Tl^+ stimulus buffer addition (10 µL/well) and data collection for an additional 4 min. The Tl^+ stimulus buffer contains in (mM) 125 NaHCO3, 1.8 CaSO4, 1 MgSO4, 5 glucose, 12 Tl2SO4, 10 HEPES, pH 7.4. For Tl^+ flux assays on the mammalian channels Kir2.x, Kir4.1 and Kir6.2/SUR1 expressing cells, the Tl^+ stimulus buffer contained 1.8 mM Tl2SO4. Also, Tl^+ flux assays on Kir3.1/3.2/mGlu8 expressing cell, required addition of an EC80 concentration of glutamate (Sigma-Aldrich, St. Louis, MO) with the Tl^+ stimulus buffer. The test compounds were transferred to daughter polypropylene 384-well plates (Greiner Bio-One, Monroe, NC) using an Echo555 liquid handler (Labcyte, Sunnyvale, CA), and then diluted into assay buffer to generate a 2X stock in 0.6% DMSO (0.3% final). For Tl^+ flux assays on Kir6.2/SUR1 expressing cells, test compounds were diluted in assay buffer containing diazoxide (250 µM final) to induce channel activation. Concentration-response curves (CRCs) were generated by screening compounds at 3-fold dilution series in 4-point (1 µM–30 µM) or 11-point (1 nM–30 µM) CRCs. Tl^+ flux data were analyzed as previously described, [21], [22] using a combination of Excel (Microsoft Corp, Redmond, WA) with XLfit add-in (IDBS, Guildford, Surrey, UK) and OriginPro (OriginLab, Northampton, MA) software. Raw data were opened in Excel and each data point in a given trace was divided by the first data point from that trace (static ratio) followed by subtraction of data points from control traces generated in the presence of vehicle controls. The slope of the fluorescence increase beginning 5 s after Tl^+ addition and ending 15 s after Tl^+ addition was calculated. To compare the effect of DMSO on AeKir1-mediated Tl^+ flux, a one-way ANOVA was performed with a Tukey's multiple comparison test. Prism software (GraphPad Software) was used to generate CRC from Tl^+ flux. Half-inhibition concentration (IC50) values were calculated from fits using a four parameter logistic equation.

Consider `CCC(=O)N1CCc2cc(S(=O)(=O)Nc3ccc4c(ccn4C)c3)ccc21`, for which the IC50 is > 30 µM.

`CCC(=O)N1CCc2cc(S(=O)(=O)Nc3cccc(C(F)(F)F)c3)ccc21`: the IC50 was > 30 µM. In the case of `CCC(=O)N1CCc2cc(S(=O)(=O)Nc3ccc4c(c3)OC(F)(F)O4)ccc21` it was > 30 µM.

In the case of `CCC(=O)N1CCc2cc(S(=O)(=O)Nc3cccc(OCCOC)c3)ccc21`, the IC50 is > 30 µM. In the case of `CCC(=O)N1CCc2cc(S(=O)(=O)Nc3cccc(OC(F)F)c3)ccc21` it was > 30 µM; in that of `CCC(=O)N1c2ccc(S(=O)(=O)Nc3ccc(Br)cc3)cc2CC1C` (stereo not shown), 2.36 µM; in that of `CCC(=O)N1CCc2cc(S(=O)(=O)Nc3cccc(Oc4ccccn4)c3)ccc21`, 1.4 µM. With `CCC(=O)N1c2ccc(S(=O)(=O)N(C)c3ccc(Br)cc3)cc2CC1C` (stereo not shown), the IC50 amounted to 2.16 µM. In the case of `CCC(=O)N1CCc2cc(S(=O)(=O)Nc3cccc(OC(F)(F)C(F)F)c3)ccc21` it was > 30 µM; in that of `CCC(=O)N1CCc2cc(S(=O)(=O)Nc3cccc(OC(F)(F)F)c3)ccc21`, > 30 µM; in that of `CCC(=O)N1CCc2cc(S(=O)(=O)Nc3cc(OC)cc(OC)c3)ccc21`, > 30 µM. To `CCC(=O)N1CCc2cc(S(=O)(=O)Nc3ccc(OC)c(OC)c3)ccc21` belongs > 30 µM; to `CCC(=O)N1CCc2cc(S(=O)(=O)Nc3ccc4c(c3)OCO4)ccc21`, > 30 µM; to `CCC(=O)N1CCc2cc(S(=O)(=O)Nc3cccc(S(C)(=O)=O)c3)ccc21`, > 30 µM.

Regarding `CCC(=O)N1CCc2cc(S(=O)(=O)Nc3ccccc3OC)ccc21`, the IC50 is > 30 µM. For `CCOc1cccc(NS(=O)(=O)c2ccc3c(c2)CCN3C(=O)CC)c1`, the IC50 was determined as 3.47 µM. As for `CCC(=O)N1CCc2cc(S(=O)(=O)NC3CCOC3)ccc21` (stereo not shown), the IC50 was > 30 µM.

Take `CCC(=O)N1CCc2cc(S(=O)(=O)Nc3cccc(Oc4ccccc4)c3)ccc21`: the concentration for half-maximal inhibition (IC50) is > 30 µM. In the case of `CCOc1ccc(NS(=O)(=O)c2ccc3c(c2)CCN3C(=O)CC)cc1` it was > 30 µM; in that of `CCC(=O)N1CCc2cc(S(=O)(=O)Nc3ccc(F)c(OC)c3)ccc21`, 1.93 µM; in that of `CCC(=O)N1CCc2cc(S(=O)(=O)Nc3cccc(OC)c3OC)ccc21`, > 30 µM. To `CCC(=O)N1CCc2cc(S(=O)(=O)Nc3ccc(F)c(C(C)=O)c3)ccc21` belongs > 30 µM.

For the origin of these results see paper PMC4222822, “Discovery and Characterization of a Potent and Selective Inhibitor of Aedes aegypti Inward Rectifier Potassium Channels” (PLoS ONE, 2014).
